Test system: partially pure bovine brain farnesyl-protein transferase
Assay: Tetrapeptides tested as farnesylation substrates with [3H]FPP (TLC / autoradiography)
Assay type: biochemical
Conditions: peptide 200 µM, 0.5 µM [3H]-FPP, 30 minutes at 30°C
Description: When a peptide was used as the acceptor substrate, there were two changes to the assay: (1) Ras protein was excluded and, (2) the reactions were stopped by the addition of one tenth volume of 0.5 M EDTA. A portion of the reaction mixture was spotted onto a TLC plate (silica gel 60 thin layer chromatography plates (20 cm x 20 cm, 0.25 mm layer thickness) [formula] were from E. Merck (Darrnstadt)) and eluted with either ethyl acetate:pyridine:acetic acid:water (10:5:1:3) or n-propanol:water (7:3) elution systems. After drying under vacuum, the plates were sprayed with En³Hance and exposed to X-ray film at -70°C.
CAAX tetrapeptides and other tetrapeptides including Cys-Xaa¹-Xaa²-Xaa³ were tested as farnesylation substrates using [³H]FPP and partially pure bovine brain farnesyl-protein transferase.
The indicated peptides at 200 µM were incubated with partially pure bovine farnesyl-protein transferase and 0.5 µM [3H]-FPP for 30 minutes at 30°C. Autoradiographic exposure time was overnight (15-20 hours).

With `CC(C)C[C@H](NC(=O)[C@@H](NC(=O)[C@@H](N)CS)C(C)C)C(=O)N[C@@H](CO)C(=O)O` [CVLS, Cys-Val-Leu-Ser] the “Farnesylation Substrate” value was “+ (+ > 90% [3H] farnesyl diphosphate converted to [3H] farnesyl tetrapeptide)”.

From patent publication EP0523873A1, “Non-substrate peptide inhibitors of farnesyl protein transferase” (MERCK & CO. INC., priority 1991, dated 1993)
